ChEMBL document CHEMBL3997841, “Continued optimization of the M5 NAM ML375: Discovery of VU6008667, an M5 NAM with high CNS penetration and a desired short half-life in rat for addiction studies” (Bioorg Med Chem Lett, 2017)

By UniProt entry, the sequences of proteins in these tests, tags left out.
UniProt P08912, whole entry: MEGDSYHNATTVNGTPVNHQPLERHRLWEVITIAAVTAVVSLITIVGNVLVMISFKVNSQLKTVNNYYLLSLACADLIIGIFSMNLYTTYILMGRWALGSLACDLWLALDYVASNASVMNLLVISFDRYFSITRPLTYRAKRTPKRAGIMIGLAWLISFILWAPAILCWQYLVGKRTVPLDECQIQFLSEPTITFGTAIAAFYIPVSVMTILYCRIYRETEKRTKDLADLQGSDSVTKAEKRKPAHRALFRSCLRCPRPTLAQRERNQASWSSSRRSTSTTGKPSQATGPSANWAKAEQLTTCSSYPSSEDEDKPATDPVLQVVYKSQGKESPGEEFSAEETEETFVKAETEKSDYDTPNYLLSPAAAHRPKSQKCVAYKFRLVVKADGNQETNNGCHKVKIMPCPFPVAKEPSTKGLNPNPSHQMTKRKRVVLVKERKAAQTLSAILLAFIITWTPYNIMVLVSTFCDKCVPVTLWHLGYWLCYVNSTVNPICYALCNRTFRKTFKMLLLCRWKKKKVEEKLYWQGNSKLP

Target: Muscarinic acetylcholine receptor M5 (Homo sapiens, UniProt P08912)
Assay: Negative allosteric modulation of human M5 receptor expressed in CHO cells assessed as inhibition of acetyl choline-induced calcium mobilization preincubated for 150 secs followed by acetyl choline addition by Fluo-4-AM dye based fluorescence assay
Type: functional, cell-based
In short: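 Intracellular calcium mobilization in CHO cells stably transfected with human M5 receptor, run in the presence of an ACh EC80 concentration; values are means of at least three independent determinations, each performed in triplicate.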

| SMILES | IC50 (read-out: IC50) | IC50 (read-out: pIC50 (converted)) |
| --- | --- | --- |
| CN(c1ccc([C@@]23c4ccccc4C(=O)N2CCN3C(=O)c2ccc(F)c(F)c2)cc1)C1CCC1 | 1.32 µM | 1.29 µM |
| CCOC(=O)N1CCN(c2ccc([C@@]34c5ccccc5C(=O)N3CCN4C(=O)c3ccc(F)c(F)c3)cc2)CC1 | 9.49 µM | 8.71 µM |
| N#CC1CCCN(c2ccc([C@@]34c5ccccc5C(=O)N3CCN4C(=O)c3ccc(F)c(F)c3)cc2)C1 (stereo partly specified) | 7.29 µM |  |
| CC1CCCN(c2ccc([C@@]34c5ccccc5C(=O)N3CCN4C(=O)c3ccc(F)c(F)c3)cc2)C1 (stereo partly specified) | 4.01 µM |  |
